Experiments:
[1] = target: T1, Bcl-2 Loop peptide 35-83 (synthetic)
T1 chain: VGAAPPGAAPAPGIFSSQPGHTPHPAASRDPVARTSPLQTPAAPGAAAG

[2] = target: GST-Bcl-2 (Bcl-2 lacking its C-terminal transmembrane domain, ~last 20 amino acids) [GST: P08515]

B1: fully active, proteolytically processed Caspase-1 comprised of p20 and p10 catalytic subunits purified from bacteria (protein)
chain 1: NPAMPTSSGSEGNVKLCSLEEAQRIWKQKSAEIYPIMDKSSRTRLALIICNEEFDSIPRRTGAEVDITGMTMLLQNLGYSVDVKKNLTASDMTTELEAFAHRPEHKTSDSTFLVFMSHGIREGICGKKHSEQVPDILQLNAIFNMLNTKNCPSLKDKPKVIIIQACRGDSPGVVWFKD
chain 2: AIKKAHIEKDFIAFCSSTPDNVSWRHPTMGSVFIGRLIEHMQEYACSCDVEEIFRKVRFSFEQPDGRAQMPTTERVTLTRCFYLFPGH
Caspase-1 activity (Ac-WEHD-AMC hydrolysis) [1]: this 35-83 Bcl-2 loop peptide did not directly inhibit Caspase-1
Caspase-1 activity (Ac-WEHD-AMC hydrolysis) [2]: neither Bcl-2 nor Bcl-XL suppressed Caspase-1 activity
